The chains behind the UniProt entries cited, without tags or fusion partners.
UniProt P09874, whole entry: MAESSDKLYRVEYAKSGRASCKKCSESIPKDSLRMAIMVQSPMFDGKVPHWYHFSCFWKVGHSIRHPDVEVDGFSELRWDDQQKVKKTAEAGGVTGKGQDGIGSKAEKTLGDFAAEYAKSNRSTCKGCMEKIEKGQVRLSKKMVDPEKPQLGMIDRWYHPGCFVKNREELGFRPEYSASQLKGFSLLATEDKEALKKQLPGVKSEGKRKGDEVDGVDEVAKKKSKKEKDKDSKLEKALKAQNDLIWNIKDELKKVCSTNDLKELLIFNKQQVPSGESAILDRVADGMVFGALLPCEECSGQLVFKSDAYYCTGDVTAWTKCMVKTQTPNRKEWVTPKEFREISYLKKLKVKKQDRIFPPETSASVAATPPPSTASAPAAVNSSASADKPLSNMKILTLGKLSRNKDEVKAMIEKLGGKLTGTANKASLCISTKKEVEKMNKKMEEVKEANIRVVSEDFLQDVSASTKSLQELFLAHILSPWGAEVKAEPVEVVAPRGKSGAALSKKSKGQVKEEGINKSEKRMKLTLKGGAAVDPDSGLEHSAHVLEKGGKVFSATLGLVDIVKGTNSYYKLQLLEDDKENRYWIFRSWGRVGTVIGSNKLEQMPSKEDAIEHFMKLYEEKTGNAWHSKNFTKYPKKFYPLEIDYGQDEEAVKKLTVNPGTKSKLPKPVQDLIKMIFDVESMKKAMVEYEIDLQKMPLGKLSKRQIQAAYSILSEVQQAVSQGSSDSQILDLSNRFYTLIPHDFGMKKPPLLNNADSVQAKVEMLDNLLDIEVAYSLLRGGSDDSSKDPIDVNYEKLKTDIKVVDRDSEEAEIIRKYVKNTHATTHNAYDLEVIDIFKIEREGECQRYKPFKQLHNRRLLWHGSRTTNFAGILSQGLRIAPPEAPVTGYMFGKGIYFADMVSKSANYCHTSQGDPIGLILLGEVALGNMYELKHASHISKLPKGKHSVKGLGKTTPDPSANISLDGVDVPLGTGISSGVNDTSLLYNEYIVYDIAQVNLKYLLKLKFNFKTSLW

This assay deals with Poly [ADP-ribose] polymerase 1 (Homo sapiens, UniProt P09874). Kind of assay: Inhibition of human recombinant Poly (ADP-ribose) polymerase 1.
Usually IC50 stands for the concentration needed to halve the response being measured. For `O=S(=O)(CCN1CCCCC1)N1CCc2nc(O)c3ccccc3c2C1`, the IC50 is 210 nM. Take `O=C(CCN1CCCCC1)N1CCc2nc(O)c3ccccc3c2C1`: the IC50 turned out to be 42 nM. Consider `O=C(CN1CCCCC1)N1CCc2c(nc(O)c3ccccc23)C1`, for which the IC50 came to 162 nM.

The values above are taken from ChEMBL document CHEMBL1136129, “Design and synthesis of poly(ADP-ribose)polymerase-1 (PARP-1) inhibitors. Part 3: In vitro evaluation of 1,3,4,5-tetrahydro-benzo[c][1,6]- and [c][1,7]-naphthyridin-6-ones” (Bioorg Med Chem Lett, 2003).
